Measured values: PubChem BioAssay AID648 (SRMLSC, 2007)
The entries are a selection whose mix differs from that of the whole data set. Some results for these compounds are left out of this collection, so the calls shown say nothing about other tests. Active and inactive are the calls of the source.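 How the source made its calls: active means viability at or below 30%; inactive means viability above 30%.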

Experiment: endothelial cell growth inhibition – HUVEC, 384-well, primary screen (AID 648);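 further: 100% = median luminescence of DMSO-only cell control wells on each plate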
Details: HUVEC proliferation, CellTiter-Glo luminescence, 72 h; hits give low values; screened at 10 µM (by protocol)

SMILES | viability
CN(C)c1cccc(C(=O)NCC2(N(C)C)CCCCC2)c1 | inactive: 96.9%
O=C(OC1CN2CCC1CC2)C(CO)(c1ccccc1)c1ccccc1 (configuration not stated) | inactive: 108%
